Experimental data reported in ChEMBL document CHEMBL1156754, “Human P2Y(14) receptor agonists: truncation of the hexose moiety of uridine-5'-diphosphoglucose and its replacement with alkyl and aryl groups” (J Med Chem, 2010).

By UniProt entry, the sequences of proteins in these tests, tags left out. Where a name states a change or a piece, a line headed by the entry shows the natural chain unless it says otherwise.
UniProt Q15077, whole entry, looked up: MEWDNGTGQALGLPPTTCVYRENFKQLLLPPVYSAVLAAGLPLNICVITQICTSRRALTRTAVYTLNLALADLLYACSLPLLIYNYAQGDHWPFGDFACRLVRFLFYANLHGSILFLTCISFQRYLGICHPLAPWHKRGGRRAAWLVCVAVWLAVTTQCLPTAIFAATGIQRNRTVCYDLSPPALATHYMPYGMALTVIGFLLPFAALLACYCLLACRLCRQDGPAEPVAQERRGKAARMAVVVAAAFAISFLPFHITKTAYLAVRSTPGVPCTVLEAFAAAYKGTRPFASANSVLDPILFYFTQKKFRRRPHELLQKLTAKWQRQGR
UniProt Q15391, whole entry, looked up: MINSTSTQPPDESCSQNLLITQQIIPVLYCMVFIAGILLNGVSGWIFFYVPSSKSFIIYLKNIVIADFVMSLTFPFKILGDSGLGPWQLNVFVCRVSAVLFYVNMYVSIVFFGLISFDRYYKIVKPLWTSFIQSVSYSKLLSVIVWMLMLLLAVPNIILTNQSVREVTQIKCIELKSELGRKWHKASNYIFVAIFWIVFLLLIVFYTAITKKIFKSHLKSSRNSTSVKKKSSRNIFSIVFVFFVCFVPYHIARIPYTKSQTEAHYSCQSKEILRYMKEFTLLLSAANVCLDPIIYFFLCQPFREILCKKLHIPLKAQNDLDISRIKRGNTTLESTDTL

Legend:
P2Y purinoceptor 6 = P2Y purinoceptor 6 (Homo sapiens, UniProt Q15077); conditions: 1321-n1
P2Y purinoceptor 14 = P2Y purinoceptor 14 (Homo sapiens, UniProt Q15391); conditions: hek293

CP(=O)(O)OP(=O)(O)OC[C@H]1O[C@@H](n2ccc(=O)[nH]c2=O)[C@H](O)[C@@H]1O
EC50 (P2Y purinoceptor 6): 8 µM | EC50 (P2Y purinoceptor 14): 4.58 µM
